# Results taken from PubChem BioAssay AID624377 (The Scripps Research Institute Molecular Screening Center, 2012).
# Amino acid sequences for entries named in this document (tags omitted). A change or cut given only in a name is not applied to a line headed by its entry.
# UniProt Q9ULH1: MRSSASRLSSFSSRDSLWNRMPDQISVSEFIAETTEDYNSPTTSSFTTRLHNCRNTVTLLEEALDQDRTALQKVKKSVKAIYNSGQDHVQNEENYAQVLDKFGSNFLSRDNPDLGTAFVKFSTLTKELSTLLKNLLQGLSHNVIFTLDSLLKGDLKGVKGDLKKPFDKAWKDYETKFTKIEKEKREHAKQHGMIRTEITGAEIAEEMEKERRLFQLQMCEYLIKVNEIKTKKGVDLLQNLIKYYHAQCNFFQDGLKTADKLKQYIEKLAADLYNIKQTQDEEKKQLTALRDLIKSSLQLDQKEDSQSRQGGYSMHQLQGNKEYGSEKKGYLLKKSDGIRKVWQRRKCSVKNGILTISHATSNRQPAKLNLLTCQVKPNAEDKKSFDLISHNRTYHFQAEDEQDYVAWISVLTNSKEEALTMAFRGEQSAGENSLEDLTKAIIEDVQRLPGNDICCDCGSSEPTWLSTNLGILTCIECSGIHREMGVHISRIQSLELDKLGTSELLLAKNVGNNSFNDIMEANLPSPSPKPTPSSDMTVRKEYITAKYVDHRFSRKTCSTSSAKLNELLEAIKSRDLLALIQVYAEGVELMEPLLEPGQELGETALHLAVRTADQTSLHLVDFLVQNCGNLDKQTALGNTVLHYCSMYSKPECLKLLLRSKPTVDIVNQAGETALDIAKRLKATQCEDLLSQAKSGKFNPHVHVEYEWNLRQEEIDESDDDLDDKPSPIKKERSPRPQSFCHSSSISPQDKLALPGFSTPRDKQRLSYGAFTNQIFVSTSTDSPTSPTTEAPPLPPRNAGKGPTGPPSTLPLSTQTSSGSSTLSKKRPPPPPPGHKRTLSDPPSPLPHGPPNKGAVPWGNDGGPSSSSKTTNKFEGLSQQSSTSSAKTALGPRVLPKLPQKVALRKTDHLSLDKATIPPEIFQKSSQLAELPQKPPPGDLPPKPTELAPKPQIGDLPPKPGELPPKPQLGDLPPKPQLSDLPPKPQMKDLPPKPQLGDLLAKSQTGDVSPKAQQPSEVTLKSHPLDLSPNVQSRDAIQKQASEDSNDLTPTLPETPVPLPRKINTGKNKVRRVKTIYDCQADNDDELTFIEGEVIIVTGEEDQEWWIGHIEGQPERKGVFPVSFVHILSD
# Only a part is listed here, and it is no random draw. The source made the active and inactive calls. Rule as the data show it: active = inhibition above about 25%; inactive = the rest.
# Target: Arf-GAP with SH3 domain, ANK repeat and PH domain-containing protein 1 (Homo sapiens) (UniProt Q9ULH1)
# Test: blockers of ASAP1-stimulated ARF1 GTP hydrolysis – biochemical, fluorescence polarization, primary screen (AID 624377);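 also: 0% = vehicle with enzyme and substrate and 100% = no enzyme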
# Conditions: GDP FP detection, at 16.5 µM, stronger effect = higher value
row,SMILES,inhibition
1,CCC1=CC2Cc3nc4ccc(Cl)cc4c(N)c3C(C1)C2 (centres undefined),inactive: 0.85%
2,O=P1(Nc2ccccn2)COc2ccccc2OC1,inactive: -3.02%
3,CCOP(=O)(NC(=NC(C)c1ccccc1)NC(C)c1ccccc1)OCC (centres undefined),inactive: -5.55%
4,CC1(CBr)Cn2c(nc3ccccc3c2=O)S1 (centres undefined),inactive: -4.77%
5,CN(C(=O)Cc1ccc(Cl)c(Cl)c1)[C@@H]1CCCC[C@H]1N1CCCC1,inactive: 9.56%
6,CC(C)/C=N\N=C(\N)N[N+](=O)[O-],inactive: -0.4%
7,CN(C(=O)Cc1ccc(Cl)c(Cl)c1)C1CCCC[C@@H]1N1CCCC1 (some centres undefined),inactive: 5.36%
8,COc1ccccc1CNC(=O)COC(=O)C(O)(c1ccccc1)c1ccccc1,inactive: 13.2%
9,O=C(/C=C/c1ccccc1)OC1CN2CCC1CC2 (centres undefined),inactive: 2.46%
10,CCCC1OP(=O)(Nc2ccccc2)OCC1CC (centres undefined),inactive: -0.11%
11,CN(C)C1(CNC(=O)c2ccc(S(C)(=O)=O)cc2)CCCCC1,inactive: -3.05%
12,Cc1nn(-c2ccccc2)c2c1P(=O)(N1CCOCC1)N(C)C(c1ccccc1)=N2 (centres undefined),inactive: 0.7%
13,Cc1ccc(C(=O)OC2CN3CCC2CC3)cc1 (centres undefined),inactive: -7.36%
14,CC1CCC(C(C)C)C(OP(=O)(Nc2ccccn2)c2ccccc2)C1 (centres undefined),inactive: 15.7%
15,O=[As](O)(c1cccs1)c1cccs1,inactive: -10.9%
16,Cc1ccc(OCC(=O)OC2CN3CCC2CC3)cc1 (centres undefined),inactive: -13%
17,NS(=O)(=O)c1cccc(NC(=O)COC(=O)C(O)(c2ccccc2)c2ccccc2)c1,inactive: 2.26%
18,O=P1(Nc2ccc(Br)cn2)COc2ccccc2OC1,inactive: 6.34%
19,Nc1cccc([As](=O)(O)c2ccccc2)c1,inactive: -9.93%
20,O=P1(Nc2ncccn2)COc2ccccc2OC1,inactive: -9.31%
21,Cc1ccc(S(=O)(=O)N(CCCN)CCCc2c(C)nc(N)[nH]c2=O)cc1,inactive: 15.7%
22,CCCCOc1ccc(C(=O)NCC2(N3CCCCC3)CCCCC2)cc1OC,inactive: 0.02%

row,SMILES,inhibition
1,Cc1cc(SC(NC(=O)c2ccccc2)C(Cl)(Cl)Cl)nc(C(C)C)n1 (centres undefined),inactive: 2.22%
2,COP(=O)(OC)N1CC1c1ccccc1 (centres undefined),inactive: -2.03%
3,CC1CCNP(=O)(N(CCCl)CCCl)O1 (centres undefined),inactive: -13.6%
4,O=C(O)C(O)c1ccc(N(CCCl)CCCl)cc1 (centres undefined),inactive: 13.9%
5,CCOC(=O)Nc1ccc([As](=O)(O)O)c(O)c1,inactive: -11.1%
6,O=[N+]([O-])c1ccc(Nc2ccc(Oc3ccc([N+](=O)[O-])cc3[N+](=O)[O-])cc2)c([N+](=O)[O-])c1,inactive: -17.4%
7,Cc1cc(SC(NC=O)C(Cl)(Cl)Cl)ncn1 (centres undefined),inactive: -17.9%
8,O=P(Nc1ccccn1)(c1cccc2ccccc12)c1cccc2ccccc12,inactive: -1.41%
9,CCOC(=O)Nc1cccc([As](=O)(O)O)c1,inactive: 3.57%
10,O=C(COc1ccccc1)OC1CN2CCC1CC2 (centres undefined),inactive: 0.06%
11,O=C(Nc1ccncc1[N+](=O)[O-])c1ccc([N+](=O)[O-])cc1[N+](=O)[O-],inactive: -1.72%
12,O=C(O)C(=O)c1ccc(N(CCCl)CCCl)cc1,inactive: 9.48%
13,COP1(=S)c2c(C)nn(CCC#N)c2N=C(c2ccc(F)cc2)N1C (centres undefined),inactive: -1.93%
14,COC(=O)C1(C)COP(=O)(N2CCCC2)OC1 (centres undefined),inactive: 2.27%
15,CCC(C)N(CC(C)C)C(=S)SC(NC(C)=O)C(Cl)(Cl)Cl (centres undefined),inactive: -0.9%
16,CCOC(=O)c1ccc(NC(=O)C(C)(CCl)SC)cc1 (centres undefined),inactive: -6.83%
17,O=C(OC1CN2CCC1CC2)c1cccc([N+](=O)[O-])c1 (centres undefined),inactive: -3.07%
18,COc1ccc2nc(NP(=O)(c3ccccc3)c3ccccc3)sc2c1,inactive: -13.8%
19,COc1cc(I)ccc1[As](=O)(O)O,inactive: 6.64%
20,O=P1(N(CCCl)CCCl)Nc2ccccc2N1,inactive: -13.1%
21,O=P1(N(CCCl)CCCl)OCCCN1CCCl (centres undefined),inactive: -3.72%
22,O=C(OC1CN2CCC1CC2)C12CC3CC(CC(C3)C1)C2 (centres undefined),inactive: 10.9%

row,SMILES,inhibition
1,Cc1cc(=O)[nH]c(N[N+](=O)[O-])n1,inactive: -8.83%
2,Cc1c2c(nc3ccccc13)SC(C(Cl)Cl)C2 (centres undefined),inactive: -5.38%
3,COc1ccc(N/C(=N/P(=O)(N2CCOCC2)N2CCOCC2)N2CCOCC2)cc1,inactive: 8.57%
4,O=[N+]([O-])c1cc(Oc2ccc([N+](=O)[O-])cc2C(F)(F)F)cc([N+](=O)[O-])c1,inactive: -0.91%
5,Cc1ccc2nc3c(c(C)c2c1)CC(C(Cl)Cl)S3 (centres undefined),inactive: -10.8%
6,Cc1ccc(OP(=O)(Nc2ccc([N+](=O)[O-])cn2)Oc2ccc(C)cc2)cc1,inactive: -1.79%
7,[N-]=[N+]=NC1CCCCC1NC(=O)c1cc([N+](=O)[O-])cc([N+](=O)[O-])c1 (centres undefined),inactive: -1.06%
8,O=[As](O)(c1ccc(O)cc1)c1ccccc1O,inactive: 10.4%
9,C[As](=O)(O)c1cccc(C(=O)O)c1,inactive: 4.77%
10,O=[N+]([O-])c1ccc(-c2cc([N+](=O)[O-])c(O)c([N+](=O)[O-])c2)cc1,inactive: -1.84%
11,COc1cc(C(=O)NCC2(N3CCOCC3)CCCCC2)ccc1OCC(C)C,inactive: -9.65%
12,CC(C)NC(=O)NP(=O)(Oc1ccccc1)Oc1ccccc1,inactive: -6.9%
13,O=C(OC1CN2CCC1CC2)c1cccc2[nH]cnc12 (centres undefined),inactive: 0.11%
14,CCN(CC)C(=S)SC(NC=O)C(Cl)(Cl)Cl (centres undefined),inactive: -10.2%
15,COC(=O)C1(C)COP(=O)(N2CCCCCC2)OC1 (centres undefined),inactive: 4.46%
16,CC(C)c1ccc(OP(=O)(Nc2ccccn2)Oc2ccccc2F)cc1 (centres undefined),inactive: -2.48%
17,ClCCSc1nnc(-c2cccnc2)o1,inactive: 1.95%
18,Cc1cc(SC(NC(=O)c2ccc(F)cc2)C(Cl)(Cl)Cl)ncn1 (centres undefined),inactive: -11.2%
19,CCOP(=O)(Nc1ccccc1)OCC,inactive: -3.33%
20,CN(C(=O)Cc1ccc(Cl)c(Cl)c1)[C@H]1CCCC[C@@H]1N1CCCC1,inactive: -11.2%
